Measured values reported in publication PMC11091828 (Journal of medicinal chemistry, 2023).

Amino acid sequences for entries named in this document (tags omitted).
UniProt P42866, whole entry: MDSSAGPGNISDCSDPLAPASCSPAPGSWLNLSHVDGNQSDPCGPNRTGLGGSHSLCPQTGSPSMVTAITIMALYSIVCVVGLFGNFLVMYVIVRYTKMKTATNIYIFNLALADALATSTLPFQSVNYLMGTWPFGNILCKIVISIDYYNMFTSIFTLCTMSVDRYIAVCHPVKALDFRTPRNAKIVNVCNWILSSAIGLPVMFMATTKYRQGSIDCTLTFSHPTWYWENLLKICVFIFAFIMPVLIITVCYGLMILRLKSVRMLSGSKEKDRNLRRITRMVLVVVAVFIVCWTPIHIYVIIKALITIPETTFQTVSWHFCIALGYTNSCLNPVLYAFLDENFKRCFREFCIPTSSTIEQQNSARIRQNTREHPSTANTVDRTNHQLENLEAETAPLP

Target: mMOR (Mus musculus, UniProt P42866)
Experiment: BRET Nb33 recruitment at MOR, HEK 293T cells
Format: cell-based
Settings: NA = No Activity at the highest tested concentration

COc1ccsc1CNCC[C@@]1(c2ccccn2)CCOC2(CCCC2)C1 [compound 3, TRV130, reference compound]
MOR Nb33 recruitment pEC50 ± SEM: 7.23 ± 0.08
